Results reported in patent publication US12171868B2 (Neurelis, Inc., priority 2022, dated 2024).

Cc1cc2c(s1)Nc1ccccc1N=C2N1CCN(C)CC1 [Olanzapine, 2-methyl-4-(4-methyl-1-piperazinyl)-10H-thieno[2,3-b] [1,5]benzodiazepine]
compatibility between olanzapine and the individual solvents (degradation products, color changes) (Vitamin E, benzyl alcohol and ethanol, two weeks at 40° C.): significant incompatibilities existed | USP Related Compounds B and C (dimethylacetamide and PEG 400 individually, approximately 5 mg/mL, two-month period at 40° C.): did not significantly increase
